# Test results from patent US20110269161.
# T1: peptide H5 (EYDRLYEEYTPFR), derived from Phosphatidylinositol 3-kinase regulatory subunit p85α(Tyr-467)/p55γ(Tyr-199)
# T1 chain: EYDRLYEEYTPFR
# B1: epidermal growth factor (EGF) receptor (EGFR, 672-1210), purified human active kinase (protein)
# chain: HIVRKRTLRRLLQERELVEPLTPSGEAPNQALLRILKETEFKKIKVLGSGAFGTVYKGLWIPEGEKVKIPVAIKELREATSPKANKEILDEAYVMASVDNPHVCRLLGICLTSTVQLITQLMPFGCLLDYVREHKDNIGSQYLLNWCVQIAKGMNYLEDRRLVHRDLAARNVLVKTPQHVKITDFGLAKLLGAEEKEYHAEGGKVPIKWMALESILHRIYTHQSDVWSYGVTVWELMTFGSKPYDGIPASEISSILEKGERLPQPPICTIDVYMIMVKCWMIDADSRPKFRELIIEFSKMARDPQRYLVIQGDERMHLPSPTDSNFYRALMDEEDMDDVVDADEYLIPQQGFFSSPSTSRTPLLSSLSATSNNSTVACIDRNGLQSCPIKEDSFLQRYSSDPTGALTEDSIDDTFLPVPEYINQSVPKRPAGSVQNPVYHNQPLNPAPSRDPHYQDPHSTAVGNPEYLNTVQPTCVNSTFDSPAHWAQKGSHQISLDNPDYQQDFFPKEAKPNGIFKGSTAENAEYLRVAPQSSEFIGA
# Target: T1, peptide H5 (EYDRLYEEYTPFR), derived …
protein,measurement,value
B1,in vitro kinase reaction with purified kinase,robust phosphorylation by Src but not EGFR
